For one compound, IC50 results are on record in ChEMBL document CHEMBL3822419, “Rational Design of Potent and Selective Inhibitors of an Epoxide Hydrolase Virulence Factor from Pseudomonas aeruginosa” (J Med Chem, 2016).

Molecules are shown by their SMILES. pIC50: −log10 of the molar value.

This experiment is described as follows: Inhibition of Pseudomonas aeruginosa recombinant His-tagged CFTR inhibitory factor expressed in expressed in Top10 Escherichia coli cells assessed as formation of 6-methoxy-2-naphthaldehyde preincubated for 5 mins followed by addition of CMNGC as substrate measured for 10 mins in presence of BSA by fluorescent-based assay. A digest of the protocol:
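Recombinant His-tagged Cif (0.6 µM) preincubated with inhibitor 5 min at 37 °C in 20 mM sodium phosphate pH 7.0, 50 mM NaCl, 0.1 mg/mL BSA; CMNGC substrate 25 µM added. 6-Methoxy-2-naphthaldehyde formation read at ex 330/em 465 nm for 10 min. IC50 is the mean of triplicates, with at least two points above and two below it. No-enzyme controls were run for inhibitor fluorescence.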

For the compound `CC(C)c1cc(Oc2c(Br)cc(NC(=O)CC(=O)O)cc2Br)ccc1O` [EPROTIROME], the pIC50 is 5.59.

Usually pIC50 stands for −log10 of the IC50, conventionally taken in molar units.
